Experimental data as given in PubChem BioAssay AID651687 (Broad Institute, 2012).
The list shows a part of the results, in another mix than the full data. The source made the active and inactive calls.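 How the source made its calls: active means every replicate shows inhibition of at least 40%; inconclusive means mean inhibition at least 40% but some replicate below; inactive means the rest.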

test: inhibitors of PGC1a acetylation signal, primary screen, cell-based, U2OS, AlphaScreen, inhibitor mode (AID 651687); conditions: AlphaScreen anti-acetyl-lysine, at 15.6 µM, stronger effect = higher value, with virally co-expressed GCN5 acetyltransferase;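 further: 0% = neutral control wells and 100% = positive control wells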

| Structure (SMILES) | inhibition |
| --- | --- |
| O=[N+]([O-])c1cccc2n[nH]nc12 | inactive: -0.791% |
| O=[N+]([O-])c1cc([N+](=O)[O-])c(CCNc2ccccc2)c([N+](=O)[O-])c1 | inactive: 15.8% |
| Cc1ccc(NP(=O)(Oc2ccccc2)Oc2ccccc2)nc1 | inactive: 3.8% |
| C[N+]1=C2C=CC=CC=C2SC12C([N+](=O)[O-])=CC([N+](=O)[O-])=C[C-]2[N+](=O)[O-] (stereo unspecified) | inactive: 10.1% |
| Nc1ccc([As](=O)(O)c2ccc(N)cc2)cc1 | inactive: -6.73% |
| CC(C)c1nc(Nc2ccccc2)n(P(=O)(N(C)C)N(C)C)n1 | inactive: -0.0755% |
| c1cc(-c2nn[nH]n2)ccc1-c1nn[nH]n1 | inactive: 6.34% |
| CC1CCN(C(=O)Oc2c(Cl)cc(Cl)c3cccnc23)CC1 | inactive: -3.37% |
| O=P1(N(CCCl)CCCl)OCCCS1 (stereo unspecified) | inactive: 1.15% |
| CC(C)(C)C(=O)NC(Sc1ccncn1)C(Cl)(Cl)Cl (stereo unspecified) | inactive: -7.15% |
| O=[N+]([O-])c1cccc(NC2=NCC(CBr)S2)c1 (stereo unspecified) | inactive: 8.08% |
| COC(=O)C1(C)COP(=O)(Nc2ccccc2)OC1 (stereo unspecified) | inactive: 4.23% |
| CCCC1OP(N)(=O)OCC1CC (stereo unspecified) | inactive: 4.49% |
| O=C(O)c1ccccc1[As](=O)(O)O | inactive: 0.144% |
| CN(C)P(=O)(N(C)C)n1c(Nc2ccccc2)nnc1-c1ccccc1 | inactive: -10.2% |
| O=P(Nc1nc2ccc(Cl)cc2s1)(c1ccccc1)c1ccccc1 | inactive: 10.1% |
| CN(C(=O)Cc1ccc(Cl)c(Cl)c1)[C@H]1CCCC[C@@H]1N1CCCC1 | inactive: 5.71% |
| Cc1ccc(NP(=O)(Oc2ccccc2F)Oc2ccccc2F)nc1 | inactive: -12% |
| CCOP(=O)(Nc1ccccc1)OCC | inactive: -9.94% |
| Nc1cccc2ccc([As](=O)(O)O)cc12 | inactive: 0.89% |
| CN(C(=O)Cc1ccc(Cl)c(Cl)c1)[C@H]1CCCC[C@H]1N1CCCC1 | inactive: 2.97% |
| Cc1ccc(OP(=O)(Nc2nccs2)Oc2ccc(C)cc2)cc1 | inactive: 0.642% |
| Clc1ccc(Cl)c(NC2=NCC(CBr)S2)c1 (stereo unspecified) | inactive: -11.6% |
| CN1CCCC(OC(=O)C(c2ccccc2)c2ccccc2)C1 (stereo unspecified) | inactive: 8.56% |
| CC(C)CC(=O)NC(Sc1ccc(Cl)cc1)C(Cl)(Cl)Cl (stereo unspecified) | inactive: -9.63% |
| Oc1ccccc1CNc1ccccn1 | inactive: 1.28% |
